According to patent US9018162B2, “Methods for rapidly treating severe hypoglycemia” (Xeris Pharmaceuticals, Inc., priority 2013, dated 2015):

Assay: Solubility of freeze-dried glucagon (citrate, pH memory 2.0/3.0) on reconstitution: visual, A630, RP-HPLC
Conditions: pH memory 3.0, in H2O

**Q.** For `CSCC[C@H](NC(=O)[C@H](CC(C)C)NC(=O)[C@H](Cc1c[nH]c2ccccc12)NC(=O)[C@H](CCC(N)=O)NC(=O)[C@@H](NC(=O)[C@H](Cc1ccccc1)NC(=O)[C@H](CC(=O)O)NC(=O)[C@H](CCC(N)=O)NC(=O)[C@H](C)NC(=O)[C@H](CCCN=C(N)N)NC(=O)[C@H](CCCN=C(N)N)NC(=O)[C@H](CO)NC(=O)[C@H](CC(=O)O)NC(=O)[C@H](CC(C)C)NC(=O)[C@H](Cc1ccc(O)cc1)NC(=O)[C@H](CCCCN)NC(=O)[C@H](CO)NC(=O)[C@H](Cc1ccc(O)cc1)NC(=O)[C@H](CC(=O)O)NC(=O)[C@H](CO)NC(=O)[C@@H](NC(=O)[C@H](Cc1ccccc1)NC(=O)[C@@H](NC(=O)CNC(=O)[C@H](CCC(N)=O)NC(=O)[C@H](CO)NC(=O)[C@@H](N)Cc1c[nH]cn1)[C@@H](C)O)[C@@H](C)O)C(C)C)C(=O)N[C@@H](CC(N)=O)C(=O)N[C@H](C(=O)O)[C@@H](C)O` [glucagon], which “concentration at which complete reconstitution was achieved” value is on record?
**A.** 5000 µg/mL
